Measured values published in ChEMBL document CHEMBL4819136, “Design and synthesis of garlic-related unsymmetrical thiosulfonates as potential Alzheimer's disease therapeutics: In vitro and in silico study” (Bioorg Med Chem, 2021).

Sequences of proteins named here, by UniProt entry; tags and fusion partners are left off.
UniProt P06276, whole entry: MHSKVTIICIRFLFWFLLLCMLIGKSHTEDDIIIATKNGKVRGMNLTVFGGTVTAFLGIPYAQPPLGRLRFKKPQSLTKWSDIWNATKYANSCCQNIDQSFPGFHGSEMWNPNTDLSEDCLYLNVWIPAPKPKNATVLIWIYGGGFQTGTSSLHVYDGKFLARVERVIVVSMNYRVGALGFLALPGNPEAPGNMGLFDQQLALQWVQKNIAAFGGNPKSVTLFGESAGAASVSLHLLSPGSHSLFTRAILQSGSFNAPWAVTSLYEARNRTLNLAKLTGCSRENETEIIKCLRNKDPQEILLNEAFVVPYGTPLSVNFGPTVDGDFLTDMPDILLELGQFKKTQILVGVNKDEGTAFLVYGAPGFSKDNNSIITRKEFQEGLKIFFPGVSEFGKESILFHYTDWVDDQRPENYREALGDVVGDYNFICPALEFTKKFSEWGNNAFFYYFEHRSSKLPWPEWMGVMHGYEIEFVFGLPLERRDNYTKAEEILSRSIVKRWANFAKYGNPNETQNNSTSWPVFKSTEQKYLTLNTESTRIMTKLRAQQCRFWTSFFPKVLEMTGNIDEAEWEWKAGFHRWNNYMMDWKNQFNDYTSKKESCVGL

Target: Cholinesterase (Homo sapiens, UniProt P06276)
Experiment: Inhibition of human serum BuChE using butyrylthiocholine iodide as substrate preincubated with enzyme for 10 mins followed by substrate addition and measured by Ellman's method
Format: cell-free

## CCN(C)C(=O)Oc1cccc([C@H](C)N(C)C)c1 [RIVASTIGMINE]
  IC50: 14.3 nM
